Data from patent US12459997B2, “Compounds and methods targeting interleukin-19” (Eli Lilly and Company, priority 2018, dated 2025).

Assays:
[1] = system: patients with moderate-to-sever atopic dermatitis; assay: AD study in JAK1 and JAK2 kinase inhibitor treatment groups: serum IL-19 and EASI; assay type: in vivo, human
[2] = system: Ps0 patients; assay: Ps0 study in JAK1 and JAK2 kinase inhibitor treatment groups: serum IL-19 and PASI; assay type: in vivo, human
[3] = 2 mg orally once daily, Week 0 (baseline)
[4] = 2 mg orally once daily, week 16
[5] = 4 mg orally once daily, Week 0 (baseline)
[6] = 4 mg orally once daily, week 16
[7] = 2 mg orally once daily, week 12
[8] = 4 mg orally once daily, week 12
[9] = 8 mg orally once daily, week 12
[10] = 10 mg orally once daily, week 12

SMILES: CCS(=O)(=O)N1CC(CC#N)(n2cc(-c3ncnc4[nH]ccc34)cn2)C1 [baricitinib]
- IL-19 (geometric mean) serum levels [1, 3]: 27.8 pg/mL
- IL-19 (geometric mean) serum levels ([1]; 2 mg orally once daily, Week 4): 18.8 pg/mL
- % of patients with serum IL-19 concentration ≤ 21 pg/mL [1, 4]: 51.9% (14/27)
- % patients with serum IL-19 concentration ≤ 21 pg/mL achieving at least EASI 75 [1, 4]: 64.3% (9/14)
- % patients with serum IL-19 concentration ≤ 21 pg/mL not achieving at least EASI 75 [1, 4]: 35.7% (5/14)
- IL-19 (geometric mean) serum levels [1, 4]: 25.1 pg/mL
- IL-19 (geometric mean) serum levels [1, 5]: 30.3 pg/mL
- IL-19 (geometric mean) serum levels ([1]; 4 mg orally once daily, Week 4): 18.0 pg/mL
- % of patients with serum IL-19 concentration ≤ 21 pg/mL [1, 6]: 63.0% (17/27)
- % patients with serum IL-19 concentration ≤ 21 pg/mL achieving at least EASI 75 [1, 6]: 58.8% (10/17)
- % patients with serum IL-19 concentration ≤ 21 pg/mL not achieving at least EASI 75 [1, 6]: 41.2% (7/17)
- IL-19 (geometric mean) serum levels [1, 6]: 21.1 pg/mL
- IL-19 serum levels (geometric mean) [2, 3]: 182.3 pg/mL
- IL-19 serum levels (geometric mean) ([2]; 2 mg orally once daily, Week 2): 98.5 pg/mL
- % of patients with serum IL-19 concentration ≤ 21 pg/mL [2, 7]: 13.8% (4/29)
- % patients with serum IL-19 concentration ≤ 21 pg/mL achieving at least PASI 75 [2, 7]: 50% (2/4)
- % patients with serum IL-19 concentration ≤ 21 pg/mL not achieving at least PASI 75 [2, 7]: 50% (2/4)
- IL-19 serum levels (geometric mean) [2, 7]: 64.8 pg/mL
- IL-19 serum levels (geometric mean) [2, 5]: 134.9 pg/mL
- IL-19 serum levels (geometric mean) ([2]; 4 mg orally once daily, Week 2): 70.2 pg/mL
- % of patients with serum IL-19 concentration ≤ 21 pg/mL [2, 8]: 31.8% (21/66)
- % patients with serum IL-19 concentration ≤ 21 pg/mL achieving at least PASI 75 [2, 8]: 47.6% (10/21)
- % patients with serum IL-19 concentration ≤ 21 pg/mL not achieving at least PASI 75 [2, 8]: 52.4% (11/21)
- IL-19 serum levels (geometric mean) [2, 8]: 60.1 pg/mL
- IL-19 serum levels (geometric mean) ([2]; 8 mg orally once daily, Week 0 (baseline)): 177.3 pg/mL
- IL-19 serum levels (geometric mean) ([2]; 8 mg orally once daily, Week 2): 67.0 pg/mL
- % of patients with serum IL-19 concentration ≤ 21 pg/mL [2, 9]: 38.9% (21/54)
- % patients with serum IL-19 concentration ≤ 21 pg/mL achieving at least PASI 75 [2, 9]: 85.7% (18/21)
- % patients with serum IL-19 concentration ≤ 21 pg/mL not achieving at least PASI 75 [2, 9]: 14.3% (3/21)
- IL-19 serum levels (geometric mean) [2, 9]: 47.5 pg/mL
- IL-19 serum levels (geometric mean) ([2]; 10 mg orally once daily, Week 0 (baseline)): 110.1 pg/mL
- IL-19 serum levels (geometric mean) ([2]; 10 mg orally once daily, Week 2): 39.7 pg/mL
- % of patients with serum IL-19 concentration ≤ 21 pg/mL [2, 10]: 46.6% (27/58)
- % patients with serum IL-19 concentration ≤ 21 pg/mL achieving at least PASI 75 [2, 10]: 77.8% (21/27)
- % patients with serum IL-19 concentration ≤ 21 pg/mL not achieving at least PASI 75 [2, 10]: 22.2% (6/27)
- IL-19 serum levels (geometric mean) [2, 10]: 25.7 pg/mL
